ChEMBL document CHEMBL3758125 (J Med Chem, 2016)

Sequences of proteins named here, by UniProt entry; tags and fusion partners are left off.
UniProt P21554, whole entry: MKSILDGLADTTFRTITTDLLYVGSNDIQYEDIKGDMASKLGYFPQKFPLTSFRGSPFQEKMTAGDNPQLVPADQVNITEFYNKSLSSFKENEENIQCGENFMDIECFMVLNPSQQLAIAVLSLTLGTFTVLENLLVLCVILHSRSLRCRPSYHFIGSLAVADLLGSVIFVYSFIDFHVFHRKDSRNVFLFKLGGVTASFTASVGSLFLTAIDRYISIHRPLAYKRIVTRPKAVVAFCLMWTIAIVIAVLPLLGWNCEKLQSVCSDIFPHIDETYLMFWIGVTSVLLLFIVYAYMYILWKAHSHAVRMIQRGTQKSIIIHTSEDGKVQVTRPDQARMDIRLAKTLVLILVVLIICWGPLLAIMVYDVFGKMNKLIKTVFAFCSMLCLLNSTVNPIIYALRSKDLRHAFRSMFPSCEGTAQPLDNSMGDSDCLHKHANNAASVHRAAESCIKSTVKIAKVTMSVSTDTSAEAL

Columns and labels:
[1] = biological target: T1, Cannabinoid receptor 1 (Homo sapiens, UniProt P21554); experiment: Negative allosteric modulator activity at human CB1R expressed in CHO-K1 cells assessed as inhibition of CP55,940-induced beta-arrestin recruitment preincubated for 30 mins followed by CP55,940 addition measured for 90 mins by PathHunter assay; assay type: cell-based
[2] = biological target: T1, Cannabinoid receptor 1; experiment: Negative allosteric modulator activity at human CB1R expressed in CHO-K1 cells assessed as effect on CP55,940-induced inhibition of forskolin-induced cAMP accumulation preincubated for 30 mins followed by CP55,940 addition measured for 30 mins by HitHunter assay; assay type: functional, cell-based

Compound O=C(Nc1ccc(Cl)cc1)Nc1cccc(-c2cccc(N3CCCC3)n2)c1 has an EC50 [1] of 3.84 nM and an EC50 [2] of 70.8 nM.
